Assay results as given in US5010106A, “Method of sterilizing anthers of plants” (dated 1991).

Key:
[1] = system: diploid rye of Chulpan variety; assay: Chemical sterilization of anthers, field test, diploid rye (isolated ears / open pollination); details: Table 4, VI-th stage, 1.0% aqueous emulsion, 10 kg/ha; for Number of grains in ear under isolator: control 44.1; for Number of grains in ear in open pollination: control 49.6; for Percentage of grain setting in open pollination: control = 100%
[2] = system: spring wheat of Botanicheskaya 4 variety; assay: Chemical sterilization of anthers, field test, spring wheat (isolated ears / open pollination); details: Table 3, spring wheat Botanicheskaya 4, V-th stage, 1% aqueous emulsion, 6 kg/ha; for Number of grains in ear under isolator: control 28.9; for Number of grains in ear in open pollination: control 30.9; for Percentage of grain setting in open pollination: control = 100%
[3] = system: spring wheat of Moskovskaya 35 variety; assay: as above; details: Table 2, spring wheat Moskovskaya 35, VI-th stage, 1% aqueous emulsion, 8 kg/ha; for Number of grains in ear under isolator: control 29.4; for Number of grains in ear in open pollination: control 31.2; for Percentage of grain setting in open pollination: control = 100%
[4] = system: millet of Mironovskoye 94 variety; assay: Chemical sterilization of anthers, field test, millet (isolated panicles / open pollination); details: Table 9, millet Mironovskoye 94, V-th stage, 1% aqueous emulsion, 10 kg/ha; for Number of grains in panicle under isolator: control 124.9; for Number of grains in panicle in open pollination: control 145.4; for Percentage of grain setting in open pollination: control = 100%
[5] = system: winter wheat of Mironovskaya 808 variety; assay: Chemical sterilization of anthers, field test, winter wheat (isolated ears / open pollination); details: Table 1, winter wheat Mironovskaya 808, V-th stage, 2% aqueous emulsion, 12 kg/ha; for Number of grains in ear under isolator: control 40.6; for Number of grains in ear in open pollination: control 42.6; for Percentage of setting of seeds in open pollination: control = 100%

Row | Compound | Sterility percentage [1] | Number of grains in ear under isolator [1] | Number of grains in ear in open pollination [1] | Percentage of grain setting in open pollination [1] | Percentage of sterility [2] | Number of grains in ear under isolator [2] | Number of grains in ear in open pollination [2] | Percentage of grain setting in open pollination [2] | Sterility percentage [3] | Number of grains in ear under isolator [3] | Number of grains in ear in open pollination [3] | Percentage of grain setting in open pollination [3] | Sterility percentage [4] | Number of grains in panicle under isolator [4] | Number of grains in panicle in open pollination [4] | Percentage of grain setting in open pollination [4] | Sterility percentage [5] | Number of grains in ear under isolator [5] | Number of grains in ear in open pollination [5] | Percentage of setting of seeds in open pollination [5]
1 | CC1=CCC(=C(C)C)CC1 | 97.8% | 0.8 | 47.8 | 96.4% | 100.0% | 0.0 | 29.5 | 95.5% | 100.0% | 0.0 | 28.1 | 90.1% | 100.0% | 0.0 | 137.3 | 89.6% | 98.5% | 0.6 | 40.2 | 94.4%
2 | Cc1ccc(C(C)C)cc1 | 100.0% | 0.0 | 47.4 | 95.6% | 95.9% | 1.2 | 30.1 | 97.4% | 95.9% | 1.2 | 27.3 | 87.5% | 100.0% | 0.0 | 107.3 | 70.0% | 98.3% | 0.7 | 39.9 | 93.7%
3 | C=C(C)C1CC=C(C)CC1 (stereo not drawn) | 99.2% | 0.3 | 43.2 | 87.1% | 97.2% | 0.8 | 27.3 | 88.3% | 97.3% | 0.8 | 30.0 | 96.2% | 100.0% | 0.0 | 109.3 | 71.1% | 90.7% | 3.8 | 41.8 | 98.1%
